System: erythrocyte suspensions of horse blood
Conditions: horse erythrocytes 5% vol/vol, TRIS buffer pH 7.2, 1 h at 37°C, absorbance 540 nm, relative to melittin 100 μM, ± confidence interval (α = 0.05)
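Also: Read-out is hemoglobin release into the supernatant, with a buffer-only blank subtracted as the 0% baseline.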

Substance: c(KKLKK(CO-C6H13)FKKLQ) [BPC592]
- Hemolysis (%) 150 µM (150 µM peptide): 100 ± 4%
- Hemolysis (%) 250 µM (250 µM peptide): 98 ± 6%

Reference: article PMC4805166, “Synthetic Cyclolipopeptides Selective against Microbial, Plant and Animal Cell Targets by Incorporation of D-Amino Acids or Histidine” (PLoS ONE, 2016)
